Ab-14 light chain CDR variants: yeast mating affinities

Reference: Engelhart et al. 2022, doi:10.1038/s41597-022-01779-4. File: FLAb, binding data.

The target is the same throughout: PDVDLGDISGINAS, from the HR2 region of SARS-CoV-2 spike.

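The starting antibody came from a phage panning campaign against this peptide. Variants in AAYL50 differ from the parent at up to three CDR positions; double and triple changes were sampled at random. The scFvs were displayed on barcoded MATa yeast, the peptide on MATalpha yeast. Binding brings cells together so that they mate, and sequencing counts the barcode pairs among the diploids. A regression on co-assayed BCL2-family reference pairs converts the normalised counts of each replicate to an apparent Kd. Mating was done three times.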

Ab-14 is the parent antibody, in scFv form: VH, then a (GGGGS)3 linker, then VL. The heavy chain is unchanged in all variants.
VH: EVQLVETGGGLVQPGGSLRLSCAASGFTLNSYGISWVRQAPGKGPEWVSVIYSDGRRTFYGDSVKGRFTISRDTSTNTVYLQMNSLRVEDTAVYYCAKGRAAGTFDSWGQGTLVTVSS
VL: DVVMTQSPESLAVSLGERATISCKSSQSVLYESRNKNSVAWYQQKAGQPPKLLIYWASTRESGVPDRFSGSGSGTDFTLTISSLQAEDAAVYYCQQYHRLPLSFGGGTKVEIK

Changes read parent residue, position, new residue, counted from the first residue of the VL shown. Every variant below is changed at E61 of the VL (sequential numbering). Values are log10 of the apparent Kd in nM; lower means stronger binding. Averages over replicates are reported, and they cover detected replicates only. A pair that was not seen in any replicate is written "not detected"; this usually means weak binding, but a binder can also be missed. Background: pairings of library AAYL50 with three empty control strains gave a value in 18% of cases (median 4.19, 5th percentile 2.99). Values in that range, when seen in few replicates, are hard to tell from nonspecific mating. For each scFv, signals with the empty controls are counted beside the result.

changes,"mean, log10 nM",seen in,control signals
A40R+E61T+H98T,3.13,1 of 3,1 of 9
W56T+S58G+E61I,1.47,2 of 3,0 of 9
R60K+E61V+L100A,not detected,0 of 3,0 of 9
S26P+A57N+E61W,4.21,2 of 3,2 of 9
S58Y+E61V+L100Q,not detected,0 of 3,0 of 9
S58I+E61S+H98T,not detected,0 of 3,0 of 9
S25P+Y31V+E61P,3.69,2 of 3,1 of 9
V29F+K36Q+E61K,3.03,2 of 3,0 of 9
Q27S+E61G+Q96Y,2.06,3 of 3,4 of 9
S33T+E61G+Q95A,2.76,3 of 3,3 of 9
V29R+S58H+E61N,3.35,2 of 3,2 of 9
R60M+E61Y+S62W,4.53,3 of 3,0 of 9
L30V+E61Y,3.97,2 of 3,2 of 9
S28E+E61A+L100V,4.87,3 of 3,5 of 9
E61W+L100W+P101L,not detected,0 of 3,0 of 9
S33L+E61K+P101M,not detected,0 of 3,1 of 9
R60K+E61G+H98C,not detected,0 of 3,1 of 9
E61Q+Q95M+R99M,5.10,3 of 3,3 of 9
R34A+E61F+P101F,2.56,3 of 3,2 of 9
S38M+E61F+H98I,2.57,3 of 3,2 of 9
N37C+E61T+H98E,2.68,1 of 3,1 of 9
E61C+Q96M,2.56,3 of 3,4 of 9
E61W+Y97F,1.70,3 of 3,5 of 9
S25I+Y31V+E61P,0.59,3 of 3,3 of 9
L30H+E61W,2.78,3 of 3,5 of 9
S25A+E61M+R99A,1.24,3 of 3,3 of 9
S38R+A57M+E61D,3.91,1 of 3,1 of 9
K36F+E61Q+Y97W,2.95,3 of 3,2 of 9
V29E+K36G+E61I,1.67,3 of 3,4 of 9
N35A+E61Y+H98K,1.22,3 of 3,4 of 9
S28C+L30F+E61R,3.04,3 of 3,1 of 9
S25L+A40G+E61Q,1.17,2 of 3,0 of 9
A57K+E61W,2.71,3 of 3,0 of 9
L30Q+Y31S+E61I,0.79,3 of 3,0 of 9
V29D+R34E+E61T,1.03,3 of 3,3 of 9
Q27A+S28M+E61N,1.59,3 of 3,1 of 9
Y31N+R60C+E61A,1.89,3 of 3,1 of 9
S28G+E61W+P101F,2.15,3 of 3,1 of 9
S25N+Q27H+E61T,4.00,2 of 3,2 of 9
A40D+E61F+Q96C,not detected,0 of 3,0 of 9
E61Y+Q96S+H98W,1.61,3 of 3,1 of 9
K36Q+E61G+Q95E,not detected,0 of 3,1 of 9
Q27S+E61H,3.35,3 of 3,2 of 9
S33H+N37D+E61F,2.39,3 of 3,1 of 9
S33R+E61H+R99H,not detected,0 of 3,3 of 9
Y31T+E61S+L100S,2.41,3 of 3,2 of 9
S28I+E61F+Q95C,not detected,0 of 3,1 of 9
N37F+E61D+H98N,4.27,1 of 3,5 of 9
Q27P+E61P+H98Q,0.93,3 of 3,7 of 9
R60C+E61W+Y97K,not detected,0 of 3,0 of 9
S33Q+A40T+E61Y,not detected,0 of 3,0 of 9
S25F+E61S,0.02,3 of 3,2 of 9
S28G+E61S+Y97E,not detected,0 of 3,1 of 9
V39T+E61K+L100T,not detected,0 of 3,2 of 9
S28D+S58V+E61I,2.56,3 of 3,1 of 9
L30P+E61A,0.86,3 of 3,6 of 9
K36V+T59A+E61D,1.98,3 of 3,2 of 9
N35L+E61S+Y97F,2.10,2 of 3,0 of 9
E61V+S62I,0.90,3 of 3,2 of 9
S33A+R60F+E61Q,0.70,3 of 3,1 of 9
V29L+Y31Q+E61K,not detected,0 of 3,0 of 9
V39E+A40G+E61D,4.64,1 of 3,0 of 9
A40R+E61A+S62T,not detected,0 of 3,3 of 9
Q27L+T59F+E61M,2.21,3 of 3,2 of 9
A40C+W56G+E61D,0.42,3 of 3,1 of 9
E61K,2.96,1 of 3,0 of 9
R34G+V39L+E61R,4.28,1 of 3,1 of 9
S26N+E61I+Y97R,not detected,0 of 3,0 of 9
N37M+E61V+H98R,2.75,3 of 3,1 of 9
K36P+A40T+E61N,not detected,0 of 3,0 of 9
R34P+N37P+E61R,3.78,3 of 3,6 of 9
E61V,0.21,3 of 3,0 of 9
T59C+E61V,2.44,3 of 3,1 of 9
N35Q+E61H+Q95T,3.57,1 of 3,3 of 9

The 13 strongest on average among those seen in every replicate, once more:

{"changes": "S25F+E61S", "mean, log10 nM": "0.02", "seen in": "3 of 3", "control signals": "2 of 9"}
{"changes": "E61V", "mean, log10 nM": "0.21", "seen in": "3 of 3", "control signals": "0 of 9"}
{"changes": "A40C+W56G+E61D", "mean, log10 nM": "0.42", "seen in": "3 of 3", "control signals": "1 of 9"}
{"changes": "S25I+Y31V+E61P", "mean, log10 nM": "0.59", "seen in": "3 of 3", "control signals": "3 of 9"}
{"changes": "S33A+R60F+E61Q", "mean, log10 nM": "0.70", "seen in": "3 of 3", "control signals": "1 of 9"}
{"changes": "L30Q+Y31S+E61I", "mean, log10 nM": "0.79", "seen in": "3 of 3", "control signals": "0 of 9"}
{"changes": "L30P+E61A", "mean, log10 nM": "0.86", "seen in": "3 of 3", "control signals": "6 of 9"}
{"changes": "E61V+S62I", "mean, log10 nM": "0.90", "seen in": "3 of 3", "control signals": "2 of 9"}
{"changes": "Q27P+E61P+H98Q", "mean, log10 nM": "0.93", "seen in": "3 of 3", "control signals": "7 of 9"}
{"changes": "V29D+R34E+E61T", "mean, log10 nM": "1.03", "seen in": "3 of 3", "control signals": "3 of 9"}
{"changes": "N35A+E61Y+H98K", "mean, log10 nM": "1.22", "seen in": "3 of 3", "control signals": "4 of 9"}
{"changes": "S25A+E61M+R99A", "mean, log10 nM": "1.24", "seen in": "3 of 3", "control signals": "3 of 9"}
{"changes": "Q27A+S28M+E61N", "mean, log10 nM": "1.59", "seen in": "3 of 3", "control signals": "1 of 9"}